Drawing on patent USRE47475E1, “Selective agents for pain suppression” (WiSys Technology Foundation, Inc., priority 2002, dated 2019), this text covers Ki for one molecule.

The target of the assay is T1, GABAA/α1 (α1β3γ2 GABAA receptor) (Homo sapiens, UniProt P14867+P18507).
T1 construct: expressed in transfected cells
Description: competitive binding assay with [3H]flunitrazepam. As to conditions: Table 4, stereoisomers; read-out: Binding Affinity at GABAA/α1.

SMILES strings stand for the structures.

Turning to `C#Cc1ccc2c(c1)C(c1ccccc1F)=NC(C)c1c(C(=O)OCC)ncn1-2` (single isomer, unassigned) [SH-053-2′F-S-CH3, 8-Ethynyl-6-(2-fluorophenyl)-4-methyl-4H-2,5,10b-triazabenzo[e]azulene-3-carboxylic acid ethyl ester], the Ki was determined as 468 nM.
